# scFv variants of Ab-14 (light chain) against a SARS-CoV-2 spike peptide

Reference: Li et al. 2023, doi:10.1038/s41467-023-39022-2. File: FLAb, binding data.

Target: peptide PDVDLGDISGINAS, taken from heptad repeat 2 (HR2) of SARS-CoV-2 spike.

Parent: Ab-14, a human scFv built as VH, the linker GGGGSGGGGSGGGGS, VL. Only the CDRs of the light chain vary.
VH: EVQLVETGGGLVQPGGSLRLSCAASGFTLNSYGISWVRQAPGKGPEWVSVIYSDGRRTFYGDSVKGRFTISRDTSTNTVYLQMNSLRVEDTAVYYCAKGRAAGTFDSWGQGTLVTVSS
VL: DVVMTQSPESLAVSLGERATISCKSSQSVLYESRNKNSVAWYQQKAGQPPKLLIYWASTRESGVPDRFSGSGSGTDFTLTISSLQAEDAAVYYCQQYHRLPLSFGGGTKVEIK

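The starting antibody came from a phage panning campaign against this peptide. These sequences belong to a second round, designed from the earlier measurements on random variants of the parent. Their group label is 14L_Ctrl (Ctrl: baseline library sampled from a position-specific scoring matrix, with some repeated check sequences). AlphaSeq pools MATa yeast showing the antibodies with MATalpha yeast showing the peptide. The frequency of each diploid, read from paired DNA barcodes, reflects how well the two displayed proteins bind. A regression on co-assayed BCL2-family reference pairs converts the normalised counts of each replicate to an apparent Kd. Each pool was mated in six replicate cultures.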

Variants are written as CDR1, CDR2 and CDR3 of the light chain (limits as in the source). Parent: KSSQSVLYESRNKNSVA, WASTRES, QQYHRLPLS.
Values are log10 of the apparent Kd in nM; lower means stronger binding.
Replicates are averaged; those with no signal do not enter the mean.
"nd" means that the variant was in the library but no mating with the target was seen in that replicate; the authors take this as a sign of poor binding, and no number exists.

CDR-L1	CDR-L2	CDR-L3	replicates, log10 nM	log10 Kd (nM), mean	empty controls
KSSQSVLYESRNKNSVA	AASTRES	QSYHWLCLS	nd / nd / nd / nd / nd / nd	nd	0/18
KFSQSVPAEDRNKGSVA	SASKRES	QQYHRLPLS	-0.08 / 0.02 / -0.23 / -0.04 / -0.06 / 0.07	-0.05	0/18
KSSQSVLKESRNKESVA	WASTRES	QQYHRLPLC	nd / nd / nd / nd / nd / nd	nd	0/18
KSSQTVLYESRNKNSVA	WASTRES	QQQHRLPLS	nd / nd / nd / nd / nd / nd	nd	0/18
KSSQSVLAEDYNKNSVA	EASTRSS	QQYHRLPLS	1.17 / 0.57 / 0.35 / 0.41 / 0.21 / 0.29	0.50	2/18 (3.08)
KSSQSVLYESRSKNSVA	HASTRES	QQYHRLPCS	nd / nd / nd / nd / nd / nd	nd	0/18
KSSQSVPYEYRNKNSVA	WASTRES	QQYHRLPLS	1.57 / 1.37 / 1.01 / 1.11 / 1.82 / 1.97	1.47	1/18 (2.47)
KLSQSVLYESRNKVSVA	WADTRES	PQYHRTPLS	nd / nd / nd / nd / nd / nd	nd	0/18
KSSQSVLYESRNKNSVA	AASTRES	QQYRRLLLS	nd / nd / nd / nd / nd / nd	nd	0/18
HSSQSVPYESRNKNSMA	WGSTRES	QQYHRLPLS	0.53 / 0.47 / 0.62 / 0.82 / 0.67 / 0.72	0.64	1/18 (2.22)
KSSQSVLYESRNKNSVA	SASTPEF	QQYHRLPLS	nd / 2.25 / 0.78 / nd / 1.70 / 3.03	1.94	0/18
KSSQSVLYESRNKNSVC	WASTRES	QQYHRLPLS	nd / nd / nd / nd / nd / nd	nd	0/18
KSALSVLYESGHKNSVA	WASTRES	QQYHRLPLS	1.79 / 2.02 / nd / 2.15 / 2.18 / 1.79	1.98	0/18
KSSQSVLYESRNKNSVA	NASTRES	QGYHRLCLS	1.00 / 1.03 / 1.03 / 3.19 / 1.22 / 1.32	1.47	1/18 (1.92)
KLSQQVLYESRNKNSVA	WASTRES	QQYHRLPLS	0.60 / 0.86 / 0.44 / 0.04 / 0.74 / 0.71	0.57	0/18
KLSQSVLYESRNKNSVA	KASTRES	QQYHRLPLF	0.14 / -0.08 / -0.22 / -0.13 / -0.22 / -0.02	-0.09	1/18 (1.74)
KSSQSVATESRGKNSVA	WASTRES	QQYHRLPLS	1.41 / 3.22 / 0.83 / 2.72 / 1.51 / 1.56	1.88	0/18
KLSQSELYESRNCNSVA	GASTRES	QQYHRLPLS	0.11 / 0.08 / -0.02 / -0.13 / -0.01 / 0.11	0.02	2/18 (3.18)
KSSQSVLYESSNKNSVA	MASTRES	QQYHRLPLS	1.19 / 1.46 / 2.21 / 2.04 / 1.31 / 2.18	1.73	0/18
KMSQSKLMESRNKNSVA	WASTRES	FSYHRLPLS	nd / 0.75 / nd / 1.16 / 0.97 / nd	0.96	0/18
KMSQSVLWESRNKNSVA	DASTRES	QQYHRLPLS	-0.20 / -0.16 / -0.13 / -0.45 / -0.22 / -0.13	-0.21	0/18
KSSQSYHWEDRNKNSVA	LASTRES	QQYHRLPLF	nd / 1.05 / nd / nd / nd / nd	1.05	0/18
KSSQSVLYESRNKNSVA	NASTRES	CQYCRLPLS	nd / nd / nd / nd / nd / nd	nd	2/18 (1.67)
KSSQSVLYESRNSNSVA	WASTRES	QQYGRLPLS	2.04 / 2.50 / 2.27 / 2.17 / 2.45 / 1.57	2.16	2/18 (2.77)
KSSQSWLYESENKNSVA	WASTRES	QQYHRWPLS	nd / nd / nd / nd / nd / nd	nd	0/18
KSSQSMWYESRNKNSVA	NASTRNS	QQYHRLPLS	1.48 / 1.74 / 0.53 / 1.39 / 1.99 / 2.56	1.62	0/18
KSLQSVLPESRNKNSVA	WASTREE	QQYHRLPLS	2.18 / nd / 2.56 / 2.82 / 2.48 / 2.66	2.54	0/18
KSSHSALYESRNKNSVA	AASTRES	QQCHRLPLS	1.53 / nd / nd / 2.35 / 1.99 / nd	1.96	0/18
KSSQSVLDESNKKNSVA	WASTRES	QQYHRLPLS	1.24 / 0.92 / 0.76 / 1.00 / 1.07 / 1.16	1.02	1/18 (2.51)
KSDQSVLYESRNKNSVA	NASTREV	QQYHRLPLS	0.21 / 0.18 / 0.31 / 0.27 / 0.15 / 0.49	0.27	1/18 (2.45)
KSSQSVIYESRNKNSMA	AASTRES	QQCHRLPLS	nd / 2.26 / nd / nd / nd / nd	2.26	1/18 (2.02)
KSSQDVLYESRNKNSVA	WASTRES	QQYHRCPLS	-0.47 / -0.07 / -0.55 / -0.15 / -0.63 / 0.50	-0.23	0/18
KYSQSTLYDSRNKNSVA	WASTRES	QQYHRDPLS	1.41 / 2.34 / nd / 1.88 / 1.80 / 1.47	1.78	1/18 (1.76)
KKSQSVLYESRNKNSVA	WASTRES	QQVHRLPLS	nd / nd / nd / nd / nd / 2.39	2.39	0/18
KSSQSVLYESRNKNSVA	WASTRIS	QQYHRGPLS	nd / nd / nd / nd / nd / nd	nd	0/18
DSSQSVLYEDRNKNSVA	DASTRES	QEYHRLPLS	1.04 / 0.96 / 0.75 / 0.99 / 0.80 / 1.07	0.94	1/18 (2.35)
KSSYSVDTESQDKNSVA	NASTRES	KQYHRLMLS	nd / nd / nd / nd / nd / nd	nd	0/18
KMSQSVLYESRNKNSVA	WASERES	QQYNRLPLS	0.66 / 0.17 / 0.30 / -0.18 / -0.10 / 0.26	0.18	0/18
KSSQSVNYEKRNKNSVA	WAATRES	QQYHRLPLS	nd / nd / 3.90 / nd / nd / nd	3.90	0/18
KSSQSVLYESRNKNSIA	WASTRSS	QQYHRLPLS	nd / 2.09 / nd / 1.52 / nd / 2.04	1.88	2/18 (2.61)
KSSTSVLILSRNKNSVA	WASTRES	QQYHHLILS	nd / nd / nd / nd / 0.63 / nd	0.63	0/18
KSSQSVSYGSRNKNSVA	WAATRES	MQYHRLPIS	0.19 / nd / 0.76 / 1.67 / 1.38 / nd	1.00	0/18
KWSQSVLYESLNKNSVA	GASTRES	QQYHRLPLS	-0.39 / -0.28 / -0.12 / -0.55 / -0.53 / -0.24	-0.35	0/18
KFSQSVLYEGRNKNSVA	WASTRES	QQYHRLPLS	0.90 / 0.94 / 0.96 / 0.76 / 0.58 / 0.85	0.83	1/18 (2.91)
KSSQAVLYESRNKNSVA	WASTREL	QQYMGLPLS	nd / nd / nd / 3.04 / nd / 2.39	2.72	0/18
KLSQSVLMEHRNKNSVA	WASTRES	QQYHRLPLS	1.18 / 1.45 / 1.67 / 1.32 / 0.78 / 0.66	1.18	0/18
KSSQSWLYESLNKNSVA	WASTRES	QQYHRLPLS	nd / nd / nd / nd / nd / nd	nd	0/18
KLDQSVLSESANKNSVA	NASTRES	QQYHRLPLS	0.63 / 0.85 / 0.60 / 0.67 / 0.85 / 0.86	0.74	1/18 (3.00)
KSSQSVWYESRNKNSVA	WASTREE	QQYHRLPLS	1.61 / 2.68 / 2.11 / 1.84 / nd / 1.31	1.91	0/18

Repeated from above, the 3 best binders with a signal in all replicates:

CDR-L1,CDR-L2,CDR-L3,"replicates, log10 nM","log10 Kd (nM), mean",empty controls
KWSQSVLYESLNKNSVA,GASTRES,QQYHRLPLS,-0.39 / -0.28 / -0.12 / -0.55 / -0.53 / -0.24,-0.35,0/18
KSSQDVLYESRNKNSVA,WASTRES,QQYHRCPLS,-0.47 / -0.07 / -0.55 / -0.15 / -0.63 / 0.50,-0.23,0/18
KMSQSVLWESRNKNSVA,DASTRES,QQYHRLPLS,-0.20 / -0.16 / -0.13 / -0.45 / -0.22 / -0.13,-0.21,0/18

The authors averaged sequences with at least three values out of six and counted those with two or fewer as poor binders.
Background: pairings of all light chain designs with three empty control strains gave a value in 4% of cases (median 2.64, 5th percentile 1.59). Values in that range, when seen in few replicates, are hard to tell from nonspecific mating. Also given: how often the same scFv was detected with the empty control strains, with their mean in brackets.
A sequence measured in both rounds can read differently, since the two assays cover different ranges.